Data as given in article PMC6754446.

Experiments:
[1] = molecular target: OTULINcat (aa 80-352) (human) (UniProt Q96BN8); test: ITC; PDZ variant (150-450 µM) in the syringe, OTULINcat variant (20-30 µM) in the cell; 25 °C; 20 mM HEPES pH 7.4, 200 mM NaCl, 2 mM TCEP; single-site binding model
[2] = molecular target: OTULINcat D87R (human) (UniProt Q96BN8); test: as above
[3] = molecular target: OTULINcat D90R (human) (UniProt Q96BN8); test: as above
[4] = molecular target: OTULINcat E209R (human) (UniProt Q96BN8); test: as above
[5] = molecular target: OTULINcat E85R (human) (UniProt Q96BN8); test: as above
[6] = molecular target: OTULINcat E85R, D87R (human) (UniProt Q96BN8); test: as above
[7] = molecular target: OTULINcat (aa 80-352) (human) (UniProt Q96BN8); test: SEC; purified recombinant proteins, Superdex 75 10/300, 20 mM Tris pH 7.5, 150 mM NaCl, 2 mM DTT; 500 µl of 65 µM complexes at equimolar ratio or in isolation

stoichiometry N [1]: 0.91 | stoichiometry N [2]: 0.99 | stoichiometry N [3]: 0.75 | stoichiometry N [4]: 0.74 | stoichiometry N [5]: 1.02 | stoichiometry N [6]: 1.53
Substance: SNX27 PDZ domain (aa 40-135) (from UniProt Q96L92 40-135) (domain or fragment)

stoichiometry N [1]: 0.89
Substance: SNX27PDZ R100E (from UniProt Q96L92 40-135) (domain or fragment)

stoichiometry N [1]: 0.84
Substance: SNX27PDZ G64E, R100E (from UniProt Q96L92 40-135) (domain or fragment)

stoichiometry N [1]: 0.76
Substance: SNX27PDZ G65A (from UniProt Q96L92 40-135) (domain or fragment)

stoichiometry N [7]: 1
Substance: SNX27PDZ (aa 40–135) (from UniProt Q96L92 40-135) (domain or fragment)

stoichiometry N [1]: 0.75
Substance: SNX27PDZ G64E (from UniProt Q96L92 40-135) (domain or fragment)

Each block holds one substance with its values, some of them ahead of it.
